Data on 14 compounds can be found in PubChem BioAssay AID651550 (National Center for Advancing Translational Sciences (NCATS), 2012).

Only a part is listed here, and it is no random draw. The source made the active and inactive calls. Rule as the data show it: active = activity change below about -80%; inconclusive = mostly about -51% to -80%; inactive = weaker than that.
% is scaled to controls: 0 for no effect and ±100 for the full control effect.

The test has as its target RAC-alpha serine/threonine-protein kinase (Homo sapiens) (UniProt P31749). Description: HTS Assay for Inhibitors of Akt Phophorylation: Primary Screen. The note with it: Neuro2A IGF-stimulated pAkt S473 HTRF, 20 min; at 50 µM; stronger effect = lower value. The source says: The serine/threonine protein kinase Akt (protein kinase B) regulates various cellular processes, including cell survival, growth, proliferation, migration and differentiation. It has been well established that Akt is activated through two essential steps involving membrane translocation and phosphorylation. Cytosolic Akt is recruited to the plasma membrane via the interaction between the PH domain and membrane PIP3 produced by phosphoinositide-3 kinase (PI3K) upon growth factor receptor stimulation. The membrane-Akt interaction results in conformational changes of Akt, enabling its activation through phosphorylation at T308 in the kinase domain and at S473 in the C-terminal hydrophobic motif by PDK1 and mTOR-rictor complex (mTORC2), respectively. […] These findings indicate that S473 phosphorylation, as an important modulator of Akt activation, may be a valuable drug target for cell growth, survival, proliferation and differentiation. These inhibitors also may have significant therapeutic potential with fewer side effects, especially for the conditions involving hyperactive Akt signaling, such as cancer and Alzheimer's disease.
To this end, a miniaturized assay was developed to be screened against the Molecular Libraries Small Molecule Repository (MLSMR).
NIH Chemical Genomics Center [NCGC]
NIH Molecular Libraries Probe Centers Network [MLPCN]
Assay Submitter (PI): Hee-Yong Kim, National Institute on Alcohol Abuse and Alcoholism
3 uL of Neuro2A cell suspension in DMEM containing 0.5% FBS and […] antibiotics mix was plated in a white solid bottom tissue culture-treated 1536-well plate (Greiner Bio-One, Monroe, NC) at 4,500 cells per well and incubated overnight at 37 deg C. 23 nL/well of compound solutions in DMSO was added with Pintool transfer (Kalypsis, San Diego, CA) at single […] final concentration. Then, the cells were stimulated with 1.5 uL of IGF (6 nM final concentration) and incubated at 37 deg C for 20 min. The reaction was terminated by the addition of 1.5 uL blocking reagent mixed with lysis buffer (1:25 correspondingly) provided with HTRF(R) Phospho Akt (Ser473) kit (Cisbio US, Bedford, MA), with following incubation for 50 min at ambient temperature. The detection HTRF conjugates from the kit were prepared according to the protocol, pre-mixed 1:1 prior to dispensing, and 2 uL/well was added with BioRAPTR FRD dispenser (Beckman Coulter). The assay plates were incubated for 24 hours at ambient temperature, and the HTRF fluorescence was measured using Envision plate reader (PerkinElmer) with excitation at 330nm, emission at 615nm (Eu(3)-Cryptate donor signal) and 665nm (d2 acceptor signal). The ratio of […] was calculated for each well.
Take `CP(=S)(Nn1cnnc1)Oc1ccccc1` (centres undefined): the activity change is inactive: -8.31%.

For the compound `COc1ccccc1OP(C)(=O)Nc1ccc(C)cc1` (centres undefined), the activity change is inactive: -0.208%.

For the compound `CCOP(C)(=S)SCC(=O)NC(C)(CC)C(=O)O` (centres undefined), the activity change is inactive: -9.25%.

For the compound `Cc1ccccc1NP(C)(=O)Nc1ccccc1C`, the activity change is inactive: -9.37%.

`CP(=O)(Nc1ccc2c(c1)OCCO2)Oc1ccccc1` (centres undefined): the activity change was inactive: 7.18%.

As for `CN(C)CCOC(=O)C(O)(c1ccccc1)C1CCCCC1` (centres undefined), the activity change is inactive: -0.956%.

With `COc1ccc(OP(C)(=O)Nc2cccc(Br)c2)cc1` (centres undefined), the activity change is inactive: 15.1%.

Turning to `CCN(CC)CCCOC(=O)C(O)(c1ccccc1)C1CCCCC1` (centres undefined), the activity change is inactive: -17%.

Turning to `COc1ccccc1OP(C)(=O)Nc1ccc(C)cc1C` (centres undefined), the activity change was inactive: -2.33%.

With `Cc1c(NP(C)(=O)Oc2ccc(C(C)C)cc2)c(=O)n(-c2ccccc2)n1C` (centres undefined), the activity change was inactive: -0.296%.

Consider `COc1ccccc1OP(C)(=O)Nc1ccc(C)c(C)c1` (centres undefined), for which the activity change was inactive: 5.71%.

For `CP(=O)(Oc1ccccc1)N1CCOC1=O` (centres undefined), the activity change is inactive: 6.49%.

`CCN(CC)CC(O)COC(=O)C(O)(c1ccccc1)C1CCCCC1` (centres undefined): the activity change was inactive: -4.56%.

Regarding `CC(C)(C)c1ccc(OP(C)(=O)O)cc1`, the activity change was inactive: 6.5%.
